Data on three compounds can be found in patent US9187486B2 (AMGEN INC., priority 2011, dated 2015).

Amino acid sequences for entries named in this document (tags omitted). A change or cut given only in a name is not applied to a line headed by its entry.
UniProt P11309, whole entry: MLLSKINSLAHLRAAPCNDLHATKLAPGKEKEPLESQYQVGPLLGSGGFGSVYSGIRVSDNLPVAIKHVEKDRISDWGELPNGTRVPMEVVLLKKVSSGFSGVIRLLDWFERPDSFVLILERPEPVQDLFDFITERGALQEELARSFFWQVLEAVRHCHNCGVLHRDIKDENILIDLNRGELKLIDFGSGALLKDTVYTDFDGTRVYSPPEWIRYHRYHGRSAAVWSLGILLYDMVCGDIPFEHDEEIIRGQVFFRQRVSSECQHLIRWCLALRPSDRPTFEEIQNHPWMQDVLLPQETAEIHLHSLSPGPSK
UniProt Q9P1W9: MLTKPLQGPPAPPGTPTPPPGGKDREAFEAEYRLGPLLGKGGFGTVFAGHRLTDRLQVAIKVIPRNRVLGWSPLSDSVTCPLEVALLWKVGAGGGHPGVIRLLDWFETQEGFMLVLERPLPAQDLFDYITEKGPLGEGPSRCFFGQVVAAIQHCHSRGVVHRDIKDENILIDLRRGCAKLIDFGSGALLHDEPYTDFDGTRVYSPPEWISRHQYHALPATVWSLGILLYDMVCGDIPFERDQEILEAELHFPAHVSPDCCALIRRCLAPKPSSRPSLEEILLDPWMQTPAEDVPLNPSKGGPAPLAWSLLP

One assay has as its target Pim-1 (Homo sapiens (Human), UniProt P11309). The assay is described as follows: Pim enzyme assay (HTRF, phosphorylation of biotinylated-BAD (S112) peptide), Pim-1. It counts as biochemical. To be noted: read-out: Pim-1 IC50 IP. From the text:
(§1) Full-length human cDNAs encoding Pim-1 (MGC ID 3913552) or Pim-2 (IMAGE ID 5092935) were purchased from Invitrogen, Carlsbad, Calif. These cDNAs were used as templates in PCR reactions to produce full-length DNA clones of the PIMs. Oligonucleotide PCR primers for Pim-1 were 5′-[…]-3′ and 5′-[…]-3′. Oligonucleotide PCR primers for Pim-2 were 5′-[…]-3′ and 5′-[…]-3′. PCR products were digested with BclI and EcoRI for Pim-1 and BamHI and EcoRI for Pim-2 and ligated into a modified baculovirus transfer vector (pFastBac 1) cleaved with BamHI and EcoRI. For bacterial expression, the same cleaved PCR products encoding Pim-1 or Pim-2 were ligated into a modified E. coli expression vector pET28(a) cleaved with BamHI and EcoRI. Amino-terminal hexahistidine tags followed by a thrombin cleavage site were previously added to the vectors using standard methods of molecular biology. Recombinant baculoviruses expressing Pim-1 or Pim-2 were made using standard methods (Fastbac manual, Invitrogen, Carlsbad, Calif.). Infection of Sf9 cells was done at an m.o.i. of greater than 5 for 24-48 h. Cells were harvested by centrifugation and frozen at −80 C. For E. coli expression, cells carrying pET28-His6-Th-Pim-1 or pET28-His6-Th-Pim-2 were picked from a single colony and grown o/n in LB media. The o/n culture was used to inoculate a 2 liter flask with 500 mL media. This was grown o/n and used to inoculate 15-20 liters of Terrific Broth in a New Brunswick Scientific fermentor. The E. coli were grown at 37° C. to and OD600>1.6. The temperature was dropped to 18° C. and o/n expression was induced with 0.5 mM IPTG. Cells were harvested by centrifugation and frozen at −80° C.
(§2) The frozen cell pellets were thawed by stirring in chilled lysis buffer (0.05 M HEPES, pH 8.0, 0.25 M NaCl, 0.01 M 2-mercaptoethanol, 10% (w/v) glycerol, 0.5% (v/v) protease inhibitor cocktail (Sigma P-8340) at a ratio of 1 L/200 g cells until homogeneous. The thawed suspension was applied to a microfluidizer at 10,000 PSI to disrupt the cells and the whole lysates were clarified by centrifugation at 50,000×g for 90 min, 4° C. Imidazole was added to the clarified lysate to a final concentration of 2.5 mM and the lysate was mixed with 10 mL of Talon resin (Clontech) and the slurry rocked gently overnight at 4° C. The slurry was centrifuged at 1,000×g for 5 min, the supernatant decanted, and the resin suspended in 40 mL of lysis wash buffer (lysis buffer at 0.75 M NaCl). This step was repeated 3× and the resin was transferred to a 2.5 cm glass column. Ten column volumes of wash buffer (0.05 M HEPES, pH 8.0, 0.1 M NaCl, 0.01 M 2-mercaptoethanol, 10% (w/v) glycerol) were applied to the resin followed by 10 column volumes of elution buffer (0.05 M HEPES, pH 8.0, 0.25 M NaCl, 0.01 M 2-mercaptoethanol, 10% (w/v) glycerol, 0.1 M imidazole). Fractions were analyzed by SDS-PAGE and those containing the protein of interest were pooled and concentrated. The concentrated protein was applied to an Amersham Superdex 75 (XK 26/60) column equilibrated in 0.025 M Tris-HCl, pH 7.5, 0.1 M NaCl, 0.01 M 2-mercaptoethanol, 10% (w/v) glycerol. […] Fractions containing the monomeric protein of interest were pooled, concentrated to ˜2 mg/mL, and stored at −80° C.
(§3) The phosphorylation of biotinylated-BAD (S112) peptide by full length recombinant Pim-1, Pim-2, or Pim-3 protein was detected with streptavidin:Allophycocyanin (APC) conjugate and a europium (Eu) labeled antibody directed against phosphorylated-BAD (S112). Excitation of Eu by a high energy laser light (337 nm) leads to a transfer of energy to the APC molecule, and results in an emission at 665 nm. The fluorescence is directly proportional to the amount of phosphorylated BAD peptide present in the reaction.
A general note: Time-resolved FRET reads energy transfer from a long-lived donor to a nearby acceptor.

In assay [1] the test system is KMS-12-BM myeloma cell line. The assay is described as follows: Pim cell assay: phospho-BAD (S112) and total BAD in KMS-12-BM cells. To be noted: read-out: KMS-12-BM IC50 IP. It counts as cell-based. As to the method:
The KMS-12-BM myeloma cell line was used to determine the in vitro cellular inhibition of Pim kinases. Disruption of Pim signaling by Pim inhibitors was determined by measuring the levels of phospho-BAD (S112) and total BAD. […] The cells were then incubated overnight at 37° C., 5% CO2. […] In addition to the 10-point dosing curve of the test compound, DMSO alone was run as a control. This dilution in DMSO was then diluted again into cell growth medium. Aliquots (11.1 uL) of the compound diluted in growth medium were then transferred to the appropriate wells of the 96-well plates containing cells to yield a final DMSO concentration of 0.3%. The cell plates were then incubated with compound for 1 hour and 50 minutes at 37° C., 5% CO2. After the 1 hour and 50 min incubation, the cell plates were spun at 1000 RPM for 10 minutes and the compound-containing medium was removed. […] The cell plates containing lysis buffer were then immediately stored at −70° C. These prepared lysates were then assayed for phospho-(S112) and total-BAD according to the manufacturer's protocol (Meso Scale Diagnostics, Cat # K15103D-3). The plates were read on the MSD Sector Imager 6000, and results were calculated according to the assay protocol: ((% Phosphoprotein=((2×Phospho signal)/(Phospho signal+Total signal))×100)).

The next assay addresses Pim-2 (Homo sapiens (Human), UniProt Q9P1W9). The assay is described as follows: Pim enzyme assay (HTRF, phosphorylation of biotinylated-BAD (S112) peptide), Pim-2. To be noted: read-out: Pim-2 IC50 IP. It counts as biochemical.
From the text: as §1, §2, §3

Structures are written as SMILES. Read-outs that look alike come from different tables or passages of the source.

A word on the IC50: it is the concentration at which inhibition is half-maximal. As for `C[C@H]1CC[C@@H](N)CN1c1ccncc1Nc1ncc2ccc(-c3ncccc3F)nn12` (single isomer, unassigned) [Example 95, N-(4-((cis)-5-amino-2-methylpiperidin-1-yl)pyridin-3-yl)-2-(3-fluoropyridin-2-yl)imidazo[1,5-b]pyridazin-7-amine tris(2,2,2-trifluoroacetate)], the IC50 was 0.1 nM at Pim-1 (full length recombinant Pim-1, biotinylated-BAD (S112) peptide, HTRF, 96-well); 258 nM in assay [1] (KMS-12-BM cells, phospho-BAD (S112)/total BAD, 1 hour and 50 minutes incubation, tris(2,2,2-trifluoroacetate)); 1.3 nM on Pim-2 (full length recombinant Pim-2, biotinylated-BAD (S112) peptide, HTRF, 96-well).

With `C[C@H]1[C@@H](N)CCCN1c1ccncc1Nc1ncc2ccc(-c3ncccc3F)nn12` [Example 75, N-(4-((2S,3S)-3-amino-2-methyl-1-piperidinyl)-3-pyridinyl)-2-(3-fluoro-2-pyridinyl)imidazo[1,5-t]pyridazin-7-amine], in assay [1] (Homo sapiens, KMS-12-BM), the IC50 was 4630 nM.

Consider `C[C@@H]1[C@@H](N)CCCN1c1ccncc1Nc1ncc2ccc(-c3ncccc3F)nn12` [Example 76, N-(4-((2R,3S)-3-amino-2-methyl-1-piperidinyl)-3-pyridinyl)-2-(3-fluoro-2-pyridinyl)imidazo[1,5-b]pyridazin-7-amine], for which the IC50 came out at 0.3 nM at Pim-1; 364 nM in assay [1] (Homo sapiens, KMS-12-BM); 1.8 nM at Pim-2.
